Data from patent US20160287666A1 (priority 2015, published 2016).

Sequences of proteins named here, by UniProt entry; tags and fusion partners are left off.
UniProt Q9UQD0, whole entry: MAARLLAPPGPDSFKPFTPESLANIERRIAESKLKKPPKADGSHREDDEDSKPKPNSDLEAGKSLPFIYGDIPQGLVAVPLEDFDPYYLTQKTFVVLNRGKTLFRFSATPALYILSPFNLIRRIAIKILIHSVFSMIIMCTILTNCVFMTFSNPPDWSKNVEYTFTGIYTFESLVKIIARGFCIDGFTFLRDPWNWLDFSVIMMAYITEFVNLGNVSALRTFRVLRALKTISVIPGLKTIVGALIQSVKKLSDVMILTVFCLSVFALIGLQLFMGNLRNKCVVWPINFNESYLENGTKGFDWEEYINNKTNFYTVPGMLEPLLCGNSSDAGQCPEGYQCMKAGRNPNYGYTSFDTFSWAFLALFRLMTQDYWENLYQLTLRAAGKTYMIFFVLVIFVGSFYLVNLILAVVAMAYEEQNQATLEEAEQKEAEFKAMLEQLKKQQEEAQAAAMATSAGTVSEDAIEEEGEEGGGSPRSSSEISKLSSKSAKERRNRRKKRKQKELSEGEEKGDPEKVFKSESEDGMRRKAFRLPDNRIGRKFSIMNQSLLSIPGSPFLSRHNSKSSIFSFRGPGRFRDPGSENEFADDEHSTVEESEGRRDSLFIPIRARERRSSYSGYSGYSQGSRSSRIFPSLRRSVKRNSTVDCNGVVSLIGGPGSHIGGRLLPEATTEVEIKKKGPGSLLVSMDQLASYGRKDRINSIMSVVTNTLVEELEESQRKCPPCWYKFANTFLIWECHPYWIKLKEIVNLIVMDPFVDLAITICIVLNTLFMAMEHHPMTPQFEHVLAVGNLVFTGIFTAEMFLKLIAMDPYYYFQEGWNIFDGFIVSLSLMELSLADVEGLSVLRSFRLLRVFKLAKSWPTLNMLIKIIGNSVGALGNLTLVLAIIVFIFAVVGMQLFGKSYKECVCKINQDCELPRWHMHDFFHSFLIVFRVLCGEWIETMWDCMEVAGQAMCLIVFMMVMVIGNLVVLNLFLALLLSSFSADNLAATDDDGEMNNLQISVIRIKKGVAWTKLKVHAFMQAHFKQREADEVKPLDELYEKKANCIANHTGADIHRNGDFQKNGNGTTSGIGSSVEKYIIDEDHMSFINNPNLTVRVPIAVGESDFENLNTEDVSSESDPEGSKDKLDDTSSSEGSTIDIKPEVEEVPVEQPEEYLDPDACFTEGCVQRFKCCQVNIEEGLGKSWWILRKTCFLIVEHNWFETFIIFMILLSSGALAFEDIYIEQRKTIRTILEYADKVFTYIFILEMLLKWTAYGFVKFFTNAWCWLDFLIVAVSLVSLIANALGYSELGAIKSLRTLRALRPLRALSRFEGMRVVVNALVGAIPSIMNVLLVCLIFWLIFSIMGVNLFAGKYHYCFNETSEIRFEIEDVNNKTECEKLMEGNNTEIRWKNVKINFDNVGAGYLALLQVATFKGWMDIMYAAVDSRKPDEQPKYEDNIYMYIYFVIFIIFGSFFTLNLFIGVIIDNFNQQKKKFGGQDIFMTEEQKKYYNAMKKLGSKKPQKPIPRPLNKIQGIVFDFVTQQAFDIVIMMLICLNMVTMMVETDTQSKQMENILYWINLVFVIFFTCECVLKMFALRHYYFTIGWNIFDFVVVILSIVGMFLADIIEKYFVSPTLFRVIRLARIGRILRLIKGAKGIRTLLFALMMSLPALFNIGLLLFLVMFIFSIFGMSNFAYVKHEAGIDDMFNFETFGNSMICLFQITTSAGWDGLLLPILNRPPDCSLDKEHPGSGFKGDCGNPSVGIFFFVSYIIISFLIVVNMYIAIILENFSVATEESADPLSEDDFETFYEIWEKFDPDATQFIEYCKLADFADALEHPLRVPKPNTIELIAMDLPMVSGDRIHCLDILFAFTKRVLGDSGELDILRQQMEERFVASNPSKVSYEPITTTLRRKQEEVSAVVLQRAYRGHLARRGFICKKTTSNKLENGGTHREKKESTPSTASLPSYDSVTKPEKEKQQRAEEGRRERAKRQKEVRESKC

Target: human Nav1.6 (Homo sapiens, UniProt Q9UQD0)
Format: cell-based

GPQCQKWMQTCDRERKCCEGFVCTLWCRKKLW-COOH [NV1D3034]
selectivity towards Nav1.7 compared to recombinant Protoxin-II: improved selectivity
